# Target: Collagenase 3 (Homo sapiens, UniProt P45452)
# Assay: In vitro inhibition of Matrix metalloprotease-13.
smiles,measurement,value
COc1ccc(S(=O)(=O)N(Cc2cccnc2)c2c(C)cccc2C(=O)NO)cc1,IC50,0.018 µM

# From ChEMBL document CHEMBL1133846, “The discovery of anthranilic acid-based MMP inhibitors. Part 3: incorporation of basic amines” (Bioorg Med Chem Lett, 2001)
